Test results from patent publication US9963439B2, “Specific inhibitors of cytochrome P450 26 retinoic acid hydroxylase” (University of Washington Through its Center for …, priority 2013, dated 2018).

Amino acid sequences for entries named in this document (tags omitted). A change or cut given only in a name is not applied to a line headed by its entry.
UniProt O43174: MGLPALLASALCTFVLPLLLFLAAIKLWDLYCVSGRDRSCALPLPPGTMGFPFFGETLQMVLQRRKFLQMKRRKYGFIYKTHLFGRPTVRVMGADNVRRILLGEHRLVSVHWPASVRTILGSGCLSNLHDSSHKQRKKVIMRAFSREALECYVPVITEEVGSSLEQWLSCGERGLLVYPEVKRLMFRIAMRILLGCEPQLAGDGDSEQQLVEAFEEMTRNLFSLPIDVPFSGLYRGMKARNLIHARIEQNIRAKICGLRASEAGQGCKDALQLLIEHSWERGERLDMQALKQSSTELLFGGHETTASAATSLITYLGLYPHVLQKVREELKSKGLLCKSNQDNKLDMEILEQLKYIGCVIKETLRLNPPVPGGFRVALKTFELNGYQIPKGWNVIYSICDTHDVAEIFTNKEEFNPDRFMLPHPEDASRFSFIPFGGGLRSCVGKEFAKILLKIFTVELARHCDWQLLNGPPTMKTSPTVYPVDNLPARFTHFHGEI

Legend:
[1] = animal models; cited from earlier work
[2] = molecular target: CYP26A1 (Homo sapiens (Human), UniProt O43174); test: CYP26A1 inhibition assay (9-cis-4-OH-RA formation from 9-cis-RA, recombinant microsomes); type: biochemical; conditions: Table 5

| SMILES | effect on concentration of atRA in vivo [1] | IC50 [2] [nM] |
| --- | --- | --- |
| CC(=O)N1CCN(c2ccc(OCC3COC(Cn4ccnc4)(c4ccc(Cl)cc4Cl)O3)cc2)CC1 (centres unmarked) [ketoconazole] | increase the concentration of atRA in vivo | – |
| Clc1cccc(C(c2ccc3[nH]cnc3c2)n2ccnc2)c1 (centres unmarked) [liarozole] | – | 1900 |
